Measured values published in patent publication US20040053309A1, “Proteins, genes and their use for diagnosis and treatment of kidney response” (priority 2000, published 2004).

Tested on: rats
Assay: Urine biochemistry parameters in Gentamicin-treated rats
Format: in vivo, rat
Details: 60 mg/kg/day
Method: Gentamicin, a known kidney toxin, was used to treat rats at a range of doses known to produce varying degrees of bistopathologically evident kidney response. Groups of rats were treated with Gentamicin at the following dose levels: 0.1, 1.0, 10, 40 or 60 mg/kg/day. The rat groups included 10 male rats per treated group, and 20 male rats in the untreated (control) group. Blood samples from rats treated at 40 mg/kg/day after 8 days were taken for proteome analysis, and kidney cortex tissue samples from rats treated at 0.1, 1.0, 10, and 40 mg/kg/day after 8 and 22 days for each group were taken for proteome analysis. Kidney cortex tissue samples were also prepared for histologic examination according to standard tissue preparation protocols.
At 60 mg/kg/day there were changes in urine biochemistry parameters (raised NAG (N-acetyl-beta-D-glucosaminidase), GGT (gamma-glutamyl-transpeptidase) and urine volume, depressed specific gravity), consistent with kidney damage.

In the case of Gentamicin, the urine volume is reported as “raised”.
